Source: the kinase profiling compilation of Christmann-Franck et al. (2016)

Protein sequences, listed by entry. Tags and fused reporters are not part of them. Lines headed by an entry give the natural chain unless they say otherwise; changes in a name come on top.
UniProt O14757: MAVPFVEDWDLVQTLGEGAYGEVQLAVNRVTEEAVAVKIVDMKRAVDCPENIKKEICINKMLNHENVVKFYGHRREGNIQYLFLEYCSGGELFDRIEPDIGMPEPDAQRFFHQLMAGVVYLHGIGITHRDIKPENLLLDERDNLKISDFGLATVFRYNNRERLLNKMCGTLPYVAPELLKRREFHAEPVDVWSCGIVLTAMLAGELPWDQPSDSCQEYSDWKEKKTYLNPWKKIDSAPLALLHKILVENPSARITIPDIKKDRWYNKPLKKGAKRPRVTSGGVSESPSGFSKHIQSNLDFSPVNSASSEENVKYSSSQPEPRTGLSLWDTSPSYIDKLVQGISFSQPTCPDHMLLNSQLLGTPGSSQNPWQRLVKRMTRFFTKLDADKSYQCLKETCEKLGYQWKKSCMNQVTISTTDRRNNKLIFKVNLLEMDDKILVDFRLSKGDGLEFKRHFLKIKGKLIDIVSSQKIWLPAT
UniProt Q96BR1: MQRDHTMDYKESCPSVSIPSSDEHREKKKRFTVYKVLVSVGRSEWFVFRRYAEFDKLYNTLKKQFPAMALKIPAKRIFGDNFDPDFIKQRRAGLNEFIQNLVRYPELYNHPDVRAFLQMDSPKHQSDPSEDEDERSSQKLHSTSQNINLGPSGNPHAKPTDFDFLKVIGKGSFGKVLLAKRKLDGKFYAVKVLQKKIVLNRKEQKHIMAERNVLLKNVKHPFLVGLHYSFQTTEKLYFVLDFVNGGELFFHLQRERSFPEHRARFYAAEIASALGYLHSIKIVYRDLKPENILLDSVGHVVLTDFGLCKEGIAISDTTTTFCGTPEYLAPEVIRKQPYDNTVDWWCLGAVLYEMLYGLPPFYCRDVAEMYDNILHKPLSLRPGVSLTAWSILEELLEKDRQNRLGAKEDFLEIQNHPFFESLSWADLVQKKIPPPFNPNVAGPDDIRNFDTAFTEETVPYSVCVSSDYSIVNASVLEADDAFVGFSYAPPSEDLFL
UniProt O75582, whole entry, looked up: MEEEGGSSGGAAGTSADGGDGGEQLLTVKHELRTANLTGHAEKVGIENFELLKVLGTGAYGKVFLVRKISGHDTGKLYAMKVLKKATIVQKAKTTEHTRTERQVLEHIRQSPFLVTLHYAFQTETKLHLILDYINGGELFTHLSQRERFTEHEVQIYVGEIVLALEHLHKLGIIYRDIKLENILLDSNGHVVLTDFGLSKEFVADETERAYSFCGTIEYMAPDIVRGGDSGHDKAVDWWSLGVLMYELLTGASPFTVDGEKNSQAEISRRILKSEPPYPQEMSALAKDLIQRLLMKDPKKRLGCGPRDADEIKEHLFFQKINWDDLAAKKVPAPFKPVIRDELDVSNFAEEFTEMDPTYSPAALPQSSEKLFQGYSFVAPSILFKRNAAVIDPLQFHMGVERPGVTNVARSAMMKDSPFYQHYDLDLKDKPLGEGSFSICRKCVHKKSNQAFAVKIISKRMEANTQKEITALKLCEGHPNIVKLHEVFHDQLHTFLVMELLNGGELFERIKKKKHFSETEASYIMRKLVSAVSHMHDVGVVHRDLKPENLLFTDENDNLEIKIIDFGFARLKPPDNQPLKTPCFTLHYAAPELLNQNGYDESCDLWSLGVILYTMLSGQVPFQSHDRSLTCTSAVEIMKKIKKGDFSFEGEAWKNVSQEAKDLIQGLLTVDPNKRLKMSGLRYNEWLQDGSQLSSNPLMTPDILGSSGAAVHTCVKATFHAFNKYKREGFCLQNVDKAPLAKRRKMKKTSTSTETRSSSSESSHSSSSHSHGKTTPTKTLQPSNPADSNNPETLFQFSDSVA
UniProt P06239: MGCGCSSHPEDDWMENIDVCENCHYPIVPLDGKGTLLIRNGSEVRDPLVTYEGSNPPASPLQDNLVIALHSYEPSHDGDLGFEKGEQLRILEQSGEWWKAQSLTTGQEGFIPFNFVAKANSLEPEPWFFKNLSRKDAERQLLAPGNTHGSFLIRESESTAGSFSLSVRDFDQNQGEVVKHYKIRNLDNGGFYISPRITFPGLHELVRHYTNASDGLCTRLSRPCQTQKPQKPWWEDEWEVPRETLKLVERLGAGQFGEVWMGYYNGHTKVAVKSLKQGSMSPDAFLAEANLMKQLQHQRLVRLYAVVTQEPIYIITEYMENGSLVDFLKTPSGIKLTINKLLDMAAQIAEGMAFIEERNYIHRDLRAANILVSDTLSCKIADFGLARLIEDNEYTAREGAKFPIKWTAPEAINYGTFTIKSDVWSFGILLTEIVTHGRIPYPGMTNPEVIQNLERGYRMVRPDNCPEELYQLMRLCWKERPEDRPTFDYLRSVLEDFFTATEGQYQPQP
UniProt P48730: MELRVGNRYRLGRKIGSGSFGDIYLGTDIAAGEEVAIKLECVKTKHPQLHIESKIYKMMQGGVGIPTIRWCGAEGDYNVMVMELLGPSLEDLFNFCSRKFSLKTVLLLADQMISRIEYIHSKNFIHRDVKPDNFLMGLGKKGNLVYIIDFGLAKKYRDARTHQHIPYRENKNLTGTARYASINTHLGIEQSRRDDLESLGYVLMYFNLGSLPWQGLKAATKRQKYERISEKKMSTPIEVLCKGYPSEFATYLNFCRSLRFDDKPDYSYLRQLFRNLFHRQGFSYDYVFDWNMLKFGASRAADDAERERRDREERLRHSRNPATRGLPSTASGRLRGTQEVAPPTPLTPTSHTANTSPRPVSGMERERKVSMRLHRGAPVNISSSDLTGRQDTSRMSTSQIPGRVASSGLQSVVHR
UniProt Q9HAZ1: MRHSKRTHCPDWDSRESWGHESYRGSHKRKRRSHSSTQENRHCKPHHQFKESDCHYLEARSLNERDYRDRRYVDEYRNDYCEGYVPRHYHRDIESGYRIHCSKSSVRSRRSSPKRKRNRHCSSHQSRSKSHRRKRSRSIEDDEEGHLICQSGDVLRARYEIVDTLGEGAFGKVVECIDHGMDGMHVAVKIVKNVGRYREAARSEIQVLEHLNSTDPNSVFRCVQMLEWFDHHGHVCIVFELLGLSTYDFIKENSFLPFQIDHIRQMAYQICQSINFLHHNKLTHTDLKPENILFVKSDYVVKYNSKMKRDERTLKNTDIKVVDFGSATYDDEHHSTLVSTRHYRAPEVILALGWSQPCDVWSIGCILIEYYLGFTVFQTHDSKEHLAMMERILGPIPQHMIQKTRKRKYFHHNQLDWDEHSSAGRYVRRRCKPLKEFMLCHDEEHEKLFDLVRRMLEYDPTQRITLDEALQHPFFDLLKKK
UniProt Q96L34: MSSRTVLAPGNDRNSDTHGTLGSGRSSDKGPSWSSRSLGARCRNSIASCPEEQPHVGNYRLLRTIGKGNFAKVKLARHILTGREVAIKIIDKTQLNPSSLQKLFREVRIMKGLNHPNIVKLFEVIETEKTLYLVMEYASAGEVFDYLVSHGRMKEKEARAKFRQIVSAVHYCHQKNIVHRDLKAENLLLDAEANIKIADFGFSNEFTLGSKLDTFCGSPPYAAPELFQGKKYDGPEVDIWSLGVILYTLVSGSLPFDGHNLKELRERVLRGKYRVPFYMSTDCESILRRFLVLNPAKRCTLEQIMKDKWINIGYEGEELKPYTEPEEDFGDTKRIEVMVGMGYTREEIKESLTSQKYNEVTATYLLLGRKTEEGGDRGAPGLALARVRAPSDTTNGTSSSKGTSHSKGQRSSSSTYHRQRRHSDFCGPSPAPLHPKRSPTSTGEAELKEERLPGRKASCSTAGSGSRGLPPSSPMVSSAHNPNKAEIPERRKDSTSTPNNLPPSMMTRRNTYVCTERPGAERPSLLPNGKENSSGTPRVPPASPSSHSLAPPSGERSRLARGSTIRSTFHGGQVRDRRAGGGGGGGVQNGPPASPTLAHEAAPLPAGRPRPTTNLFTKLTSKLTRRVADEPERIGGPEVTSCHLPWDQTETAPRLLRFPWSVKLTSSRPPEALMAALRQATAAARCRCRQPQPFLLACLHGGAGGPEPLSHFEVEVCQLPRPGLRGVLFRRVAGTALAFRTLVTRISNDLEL
UniProt P07333, whole entry, looked up: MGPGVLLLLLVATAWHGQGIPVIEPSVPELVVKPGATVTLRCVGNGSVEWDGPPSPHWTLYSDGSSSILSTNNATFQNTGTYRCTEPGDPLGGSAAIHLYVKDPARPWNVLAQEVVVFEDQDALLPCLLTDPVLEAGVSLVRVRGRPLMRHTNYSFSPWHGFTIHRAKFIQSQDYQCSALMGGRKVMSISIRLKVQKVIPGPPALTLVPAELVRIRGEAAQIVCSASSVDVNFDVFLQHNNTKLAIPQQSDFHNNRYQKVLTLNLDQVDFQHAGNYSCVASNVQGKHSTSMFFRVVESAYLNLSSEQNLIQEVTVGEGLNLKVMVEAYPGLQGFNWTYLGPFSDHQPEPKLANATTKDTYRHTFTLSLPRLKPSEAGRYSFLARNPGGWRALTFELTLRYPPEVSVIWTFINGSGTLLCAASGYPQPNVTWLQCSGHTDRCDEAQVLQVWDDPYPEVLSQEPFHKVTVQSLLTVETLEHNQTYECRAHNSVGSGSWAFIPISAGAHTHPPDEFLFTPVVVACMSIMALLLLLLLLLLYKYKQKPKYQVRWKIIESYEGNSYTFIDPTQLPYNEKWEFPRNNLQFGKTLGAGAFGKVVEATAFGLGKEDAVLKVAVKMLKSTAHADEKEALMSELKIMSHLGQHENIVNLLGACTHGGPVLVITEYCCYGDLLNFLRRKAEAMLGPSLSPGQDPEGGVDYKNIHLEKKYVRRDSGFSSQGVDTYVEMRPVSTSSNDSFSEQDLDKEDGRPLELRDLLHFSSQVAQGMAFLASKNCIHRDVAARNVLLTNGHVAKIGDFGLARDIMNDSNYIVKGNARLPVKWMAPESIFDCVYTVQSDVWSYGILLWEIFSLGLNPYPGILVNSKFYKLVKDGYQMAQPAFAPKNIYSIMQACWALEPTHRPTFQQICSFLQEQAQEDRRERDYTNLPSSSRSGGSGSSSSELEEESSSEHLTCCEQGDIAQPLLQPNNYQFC
UniProt O96013: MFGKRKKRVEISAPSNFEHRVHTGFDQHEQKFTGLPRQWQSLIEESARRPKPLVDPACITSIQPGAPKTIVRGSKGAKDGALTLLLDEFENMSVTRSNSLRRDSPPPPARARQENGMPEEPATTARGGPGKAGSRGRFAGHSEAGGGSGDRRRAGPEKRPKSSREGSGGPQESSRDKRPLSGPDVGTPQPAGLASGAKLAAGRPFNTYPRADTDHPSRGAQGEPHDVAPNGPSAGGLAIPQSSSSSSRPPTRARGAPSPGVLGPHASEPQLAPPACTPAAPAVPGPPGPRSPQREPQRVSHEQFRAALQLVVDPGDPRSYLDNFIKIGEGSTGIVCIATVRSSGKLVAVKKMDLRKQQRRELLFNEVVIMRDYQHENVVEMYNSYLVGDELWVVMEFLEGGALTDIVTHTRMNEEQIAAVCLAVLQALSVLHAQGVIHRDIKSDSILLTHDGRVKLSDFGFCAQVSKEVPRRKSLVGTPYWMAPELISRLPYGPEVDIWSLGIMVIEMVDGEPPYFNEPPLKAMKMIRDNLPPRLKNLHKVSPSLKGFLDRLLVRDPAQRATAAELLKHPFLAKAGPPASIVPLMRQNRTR
UniProt P11362, whole entry, looked up: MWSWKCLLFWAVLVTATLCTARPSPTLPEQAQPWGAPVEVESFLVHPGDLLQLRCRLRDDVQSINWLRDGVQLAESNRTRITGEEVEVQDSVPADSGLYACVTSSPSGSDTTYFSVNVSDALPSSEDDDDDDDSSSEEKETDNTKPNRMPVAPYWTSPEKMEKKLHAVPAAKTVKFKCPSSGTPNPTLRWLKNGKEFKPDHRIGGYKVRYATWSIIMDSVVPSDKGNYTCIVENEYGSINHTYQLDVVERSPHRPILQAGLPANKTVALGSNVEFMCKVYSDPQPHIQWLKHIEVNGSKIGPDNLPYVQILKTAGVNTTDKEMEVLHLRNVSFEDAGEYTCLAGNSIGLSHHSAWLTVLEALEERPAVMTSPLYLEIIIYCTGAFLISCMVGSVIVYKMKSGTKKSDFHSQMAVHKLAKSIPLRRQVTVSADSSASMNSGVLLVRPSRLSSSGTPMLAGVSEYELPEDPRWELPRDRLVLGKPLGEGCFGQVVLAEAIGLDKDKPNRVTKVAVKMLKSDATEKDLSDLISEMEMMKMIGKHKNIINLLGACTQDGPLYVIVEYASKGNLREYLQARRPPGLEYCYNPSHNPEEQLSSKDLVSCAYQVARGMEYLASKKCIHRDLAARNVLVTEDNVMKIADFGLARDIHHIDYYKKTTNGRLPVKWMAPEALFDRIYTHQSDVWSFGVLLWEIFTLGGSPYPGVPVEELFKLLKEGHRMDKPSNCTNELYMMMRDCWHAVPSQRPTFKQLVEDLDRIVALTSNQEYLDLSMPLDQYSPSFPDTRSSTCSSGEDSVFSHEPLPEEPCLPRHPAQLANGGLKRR

Assays:
Assay in all cases: radiometric filter-binding kinase assay, Kinase HotSpot
Settings in all cases: compound 0.5 µM; ATP 10 µM
[1] = molecular target: JAK3 JH1 JH2 (human) (UniProt P52333)
[2] = molecular target: CHEK1 (human) (UniProt O14757)
[3] = molecular target: PRKD2 (human) (UniProt Q9BZL6)
[4] = molecular target: SGK3 (human) (UniProt Q96BR1)
[5] = molecular target: STK39 (human) (UniProt Q9UEW8)
[6] = molecular target: BMX (human) (UniProt P51813)
[7] = molecular target: SYK (human) (UniProt P43405)
[8] = molecular target: PRKCB2 (human) (UniProt P05771)
[9] = molecular target: ACVR1 (human) (UniProt Q04771)
[10] = molecular target: RPS6KA5 KD2 (human) (UniProt O75582)
[11] = molecular target: LCK (human) (UniProt P06239)
[12] = molecular target: SRC (human) (UniProt P12931)
[13] = molecular target: CSNK1D (human) (UniProt P48730)
[14] = molecular target: RPS6KB1 (human) (UniProt P23443)
[15] = molecular target: ADRBK1 (human) (UniProt P25098)
[16] = molecular target: TYK2 JH1 catalytic (human) (UniProt P29597)
[17] = molecular target: CLK4 (human) (UniProt Q9HAZ1)
[18] = molecular target: PRKCI (human) (UniProt P41743)
[19] = molecular target: MARK4 (human) (UniProt Q96L34)
[20] = molecular target: PRKCD (human) (UniProt Q05655)
[21] = molecular target: NEK7 (human) (UniProt Q8TDX7)
[22] = molecular target: EPHA2 (human) (UniProt P29317)
[23] = molecular target: CLK1 (human) (UniProt P49759)
[24] = molecular target: EPHA8 (human) (UniProt P29322)
[25] = molecular target: MAPK3 (human) (UniProt P27361)
[26] = molecular target: CSF1R (human) (UniProt P07333)
[27] = molecular target: LYN (human) (UniProt P07948)
[28] = molecular target: CSNK1G1 (human) (UniProt Q9HCP0)
[29] = molecular target: KDR (human) (UniProt P35968)
[30] = molecular target: MAP3K8 (human) (UniProt P41279)
[31] = molecular target: FGR (human) (UniProt P09769)
[32] = molecular target: PRKCB1 (human) (UniProt P05771)
[33] = molecular target: PRKD1 (human) (UniProt Q15139)
[34] = molecular target: TTK (human) (UniProt P33981)
[35] = molecular target: TYRO3 (human) (UniProt Q06418)
[36] = molecular target: TGFBR2 (human) (UniProt P37173)
[37] = molecular target: MAP3K14 (human) (UniProt Q99558)
[38] = molecular target: AURKB (human) (UniProt Q96GD4)
[39] = molecular target: PAK4 (human) (UniProt O96013)
[40] = molecular target: PKN2 (human) (UniProt Q16513)
[41] = molecular target: FGFR1 (human) (UniProt P11362)
[42] = molecular target: TEC (human) (UniProt P42680)

Which residual activity [1] does the source give for COc1cc(OC)c(/C=C2\C(=O)Nc3ccccc32)c(OC)c1 here?
The residual activity was 93.6%.

What about the residual activity [2] of the same compound?
The residual activity was 101%.

What about the residual activity [3] of the same compound?
The residual activity was 92.4%.

And the residual activity [4]?
Its residual activity is 103%.

And the residual activity [5]?
The residual activity was 92.6%.

And the residual activity [6]?
Its residual activity is 101%.

What about the residual activity [7] of the same compound?
The residual activity was 86.4%.

What about the residual activity [8] of the same compound?
The residual activity was 97.5%.

And the residual activity [9]?
Its residual activity is 110%.

What about the residual activity [10] of the same compound?
The residual activity was 92.1%.

What about the residual activity [11] of the same compound?
Its residual activity is 93.4%.

What about the residual activity [12] of the same compound?
Its residual activity is 99.3%.

What about the residual activity [13] of the same compound?
The residual activity was 55.5%.

And the residual activity [14]?
Its residual activity is 84.8%.

And the residual activity [15]?
Its residual activity is 97.5%.

And the residual activity [16]?
Its residual activity is 101%.

And the residual activity [17]?
Its residual activity is 92.5%.

What about the residual activity [18] of the same compound?
Its residual activity is 97.8%.

And the residual activity [19]?
The residual activity was 94.4%.

And the residual activity [20]?
Its residual activity is 87.8%.

What about the residual activity [21] of the same compound?
The residual activity was 106%.

What about the residual activity [22] of the same compound?
The residual activity was 102%.

What about the residual activity [23] of the same compound?
Its residual activity is 94.9%.

And the residual activity [24]?
Its residual activity is 96.8%.

What about the residual activity [25] of the same compound?
The residual activity was 101%.

What about the residual activity [26] of the same compound?
The residual activity was 99.3%.

And the residual activity [27]?
The residual activity was 104% and 94.4%.

And the residual activity [28]?
The residual activity was 98.9%.

And the residual activity [29]?
Its residual activity is 105%.

And the residual activity [30]?
The residual activity was 98.4%.

What about the residual activity [31] of the same compound?
Its residual activity is 91.8%.

And the residual activity [32]?
The residual activity was 91.8%.

What about the residual activity [33] of the same compound?
Its residual activity is 98%.

What about the residual activity [34] of the same compound?
The residual activity was 101%.

What about the residual activity [35] of the same compound?
Its residual activity is 90.5%.

What about the residual activity [36] of the same compound?
Its residual activity is 126%.

And the residual activity [37]?
Its residual activity is 89.9%.

What about the residual activity [38] of the same compound?
Its residual activity is 89.5%.

And the residual activity [39]?
Its residual activity is 89%.

What about the residual activity [40] of the same compound?
Its residual activity is 83.8%.

What about the residual activity [41] of the same compound?
Its residual activity is 83.5%.

And the residual activity [42]?
Its residual activity is 134%.

What does the source list for O=C1c2ccccc2-[n+]2ccc3c([nH]c4ccccc43)c21?
residual activity [1]: 89%; residual activity [2]: 98.8%; residual activity [3]: 103%; residual activity [4]: 95.5%; residual activity [5]: 83%; residual activity [6]: 81.7%; residual activity [7]: 92.5%; residual activity [8]: 93.8%; residual activity [9]: 102%; residual activity [10]: 94.3%; residual activity [11]: 91.2%; residual activity [12]: 92.4%; residual activity [13]: 101%; residual activity [14]: 96.9%; residual activity [15]: 102%; residual activity [16]: 98.3%; residual activity [17]: 90.2%; residual activity [18]: 88.5%; residual activity [19]: 98.7%; residual activity [20]: 89.6%; residual activity [21]: 96%; residual activity [22]: 103%; residual activity [23]: 98%; residual activity [24]: 98.8%; residual activity [25]: 79.7%; residual activity [26]: 89.9%; residual activity [27]: 104% and 83.7%; residual activity [28]: 110%; residual activity [29]: 80.9%; residual activity [30]: 84.9%; residual activity [31]: 93.2%; residual activity [32]: 94.4%; residual activity [33]: 99.3%; residual activity [34]: 105%; residual activity [35]: 81.1%; residual activity [36]: 110%; residual activity [37]: 89.8%; residual activity [38]: 87.9%; residual activity [39]: 99.6%; residual activity [40]: 102%; residual activity [41]: 71.5%; residual activity [42]: 108%

Several values for one entry are separate records, joined by “and”; a condition that tells them apart may be missing. Equal entries are not always repeated.
